The assay has as its system NQO1 specific enzyme activity in BEAS-2B cells (marker for NRF2 activation). Briefly: Beas2B NQO1 MTT Assay. The note with it: NQO1 specific activity induction, 48 hours with compound. An excerpt: NAD(P)H:quinone oxidoreductase 1 (NQO1), also called DT diaphorase, is a homodimeric FAD-containing enzyme that catalyses obligatory NAD(P)H-dependent two-electron reductions of quinones and protects cells against the toxic and neoplastic effects of free radicals and reactive oxygen species arising from one-electron reductions. The transcription of NQO1 is finely regulated by NRF2, and thus NQO1 activity is a good marker for NRF2 activation. On day one, frozen BEAS-2B cells (ATCC) were thawed in a water bath, counted, and re-suspended at a concentration of 250,000 cells/mL. Fifty microliters of cells were plated in 384 well black clear-bottomed plates. Plates were incubated at 37° C., 5% CO2 overnight. On day two, plates were centrifuged and 50 nL of compound or controls were added to the cells. Plates were then incubated at 37° C., 5% CO2 for 48 hours. […] Fifty microliters of MTT cocktail was added to each well, plate was centrifuged, and analysed on an Envision plate reader (Perkin Elmer) using Absorbance 570 nm label for 30 minutes. Product formation was measured kinetically and the pEC50 of NQO1 specific activity induction was calculated by plotting the change in absorbance (Delta OD/min) versus the log of compound concentration followed by 3-parameter fitting. […]

This note sets out measurements from patent publication US20200031820A1, “3-CARBOXYLIC ACID PYRROLES AS NRF2 REGULATORS” (GLSXOSMITHKLINE INTELLECTUAL PROPERTY DEVELOPMENT LIMITED, priority 2016, published 2020).

As usually defined, the EC50 is the concentration needed to bring the measured effect to its halfway point. In the case of `CC[C@H]1Cc2ccc(C(F)(F)F)cc2S(=O)(=O)N(Cc2cccc(-n3ccc(C(=O)O)c3[C@@H]3C[C@H]3c3cn(C)nn3)c2)C1`, the EC50 was < 1 nM.
